Experiment: Human Equivalent Dose (HED) calculation based on body surface area
Conditions: for HED: Mouse Km=3, Human Km=37; for Animal NOAEL: mouse (~20 g)
Description: Provided herein are methods for calculating HED of the MBTA components based on body surface area.
See details from: Nair A B, Jacob S. A simple practice guide for dose conversion between animals and human. J Basic Clin Pharma 2016; 7:27-31
A formula to calculate HED is shown as follows:
HED(mg/kg)=Animal dose(mg/kg)Animal Km/Human Km

Row | Substance | HED/Safety Factor (10) [mg/kg] | Maximum Recommended Starting Dose (MRSD, assuming 60 kg adult) [mg/day] | HED [mg/kg] | Animal NOAEL [mg/kg]
1 | Lipoteichoic acid [LTA] | 0.00973 | 0.5838 | 0.0973 | –
2 | Oleyl-O-poly(ethylene glycol)-succinyl-N-hydroxy-succinimidyl esters [BAM] | 0.03973 | 2.384 | 0.3973 | 4.9
3 | Polyinosinic:polycytidylic acid [Poly I:C] | 0.00973 | 0.5838 | 0.0973 | 1.2

Reference: patent US20230054318A1, “PERSONALIZED TUMOR VACCINE AND USE THEREOF FOR CANCER IMMUNOTHERAPY” (priority 2019, published 2023)
